Rows were chosen to be rich in hits. Some 13% of all compounds tested hit in one or more screens of this group.
Sfp PPTase inh: qHTS Assay for Inhibitors of Bacillus subtilis Sfp phosphopantetheinyl transferase (PPTase); 4'-phosphopantetheinyl transferase ffp (Bacillus subtilis), Q9F4F7; Biochemical Sfp PPTase activity, qHTS; Potency, µM, for inactives: max response, negative = inhibition, most hits filed as inhibitors; hit rate 3.5% among 310,000; AID 1490, 2009; active = well fitted inhibition curve with a large enough effect; inconclusive = small, poorly fitted or top-dose-only effect, or another doubt; inactive = no such curve, though single readings can be large or run the other way;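 also: the enzyme is Sfp with the accession as filed and its product quenches rhodamine fluorescence; potency is read from the fitted curve at half-maximal effect; 0% = enzyme reaction without inhibitor and -100% = no enzyme wells; top concentration of the series not given in the record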
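Compounds were incubated with enzyme (final 15 nM) for 15 min at room temperature before substrate addition started the reaction. Fluorescence at 525 nm excitation, 598 nm emission was recorded immediately and after 30 minutes.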
G9a inh: inhibitors of human histone lysine methyltransferase G9a; G9a H3K9 monomethylation, AlphaScreen, 2 h; AID 504332; Potency, µM (doses to about 102 µM), for the others: top-dose activity, negative = inhibition, hits mostly inhibitors; Q96KQ7; 350,000 tested, 8.8% active; note: potency is the fitted concentration of half-maximal effect; % is set by controls: 0 for no effect and ±100 for the full control effect; nearly all actives have a fitted effect of over 75% in size
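Using a bead-based AlphaScreen, monomethylated H3K9 product from 2 h room-temperature reactions (G9a 20 nM, peptide 500 nM, SAM 20 uM) was detected with 0.5 ug/mL rabbit anti-H3K9me1 antibody.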
ALDH1A1 inh: ALDH1A1 (human) enzyme inhibition; 220,000 tested, 7.3% active; Potency, µM (highest dose often 75.3 µM), for the others: top-dose activity, negative = inhibition, hits mostly inhibitors; Purified ALDH1A1, NADH fluorescence, propionaldehyde substrate; P00352; active = well fitted inhibition curve with a large enough effect, not every such curve was filed as active; inconclusive = small, poorly fitted or top-dose-only effect, or another doubt; inactive = no such curve, though single readings can be large or run the other way;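 note: potency is the fitted concentration of half-maximal effect; plate controls were no enzyme wells and a reference inhibitor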
KDM4E inh: blocks human JMJD2E demethylase activity | B2RXH2 | JMJD2E catalytic domain, FDH-coupled NADH fluorescence (FDH is formaldehyde dehydrogenase) | Potency, µM (top dose mostly 57.1 µM), for the others: top-dose activity change, negative = inhibition, most hits filed as inhibitors | 230,000 tested, 1.6% active; active = well fitted inhibition curve with a large enough effect, not every such curve was filed as active; inconclusive = small, poorly fitted or top-dose-only effect, or another doubt; inactive = no such curve, though single readings can be large or run the other way;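 note: potency is the fitted concentration of half-maximal effect; 0% = wells with enzyme and -100% = buffer wells without enzyme; nearly all actives have a fitted effect of over 50% in size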
miR-21 FLuc: raises the signal of a miR-21 reporter; HeLa miR-21 FLuc reporter, luciferase, 48 h; Potency, µM (highest dose often 38.3 µM), inactives show at the highest dose reporter change, positive = more light; 340,000 tested, under 10 active; active = well fitted rising curve with a large enough effect; inconclusive = small, poorly fitted or top-dose-only effect; inactive = no such curve, though single readings can be large or run the other way;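 note: % of control where 0% means no effect; miR-21 action dims this reporter so a rising signal means less miR-21 action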
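Compounds were titrated across several concentrations (up to approximately 40 uM) and incubated 48 hours with HeLa miR-21-FLuc reporter cells (miR-21 target sequence downstream of FLuc, endogenous miR-21). Readout was firefly luciferase luminescence after lytic detection reagent.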
LMNA splice mod: LMNA splicing modulation; Potency, µM (highest dose often 46.1 µM), for inactives: at the top dose ratio change, negative = inhibition, actives largely listed as inhibitors; 200,000 tested, 0.01% active; HeLa LMNA splicing GFP/RFP minigene ratio, 48 h; active = well fitted inhibition curve with a large enough effect in the signal ratio, with a control signal flat, not every such curve was filed as active; inconclusive = small, poorly fitted or top-dose-only effect, or effect the other way, or a change in a side signal; the % refers to the signal ratio; note: potency is the fitted concentration of half-maximal effect; % is set by controls: 0 for no effect and ±100 for the full control effect
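S3 HeLa cells stably expressing lamin A-EGFP splicing minigene plus DsRed2, 600 cells/well, 48 h compound exposure at 37C. Laser-scanning cytometry; analysed as GFP (500-530 nm)/RFP (575-640 nm) total intensity ratio; 0.5% DMSO vehicle.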
Numbers without * were called inactive; ? = inconclusive; . = no result given; [ ] = dose if it differs, or a comment. Unless noted, calls come from the whole dose curve; as a rule, active = well fitted curve in the direction sought with a large enough effect; inconclusive = small, poorly fitted or top-dose-only effect, or another doubt; inactive = no such curve, though single readings can be large; an effect the other way counts as inactive or inconclusive.

ALDH1A1 inh	miR-21 FLuc	KDM4E inh	Sfp PPTase inh	LMNA splice mod	G9a inh	SMILES
?	-4%	?	-2%	?	1.4µM*	Oc1ccc2ccccc2c1/C=N/c1nc2c(s1)CCCC2
?	5%	-21%	-28%	.	8.9µM*	Oc1ccc2ccccc2c1C=NC1CCCCC1
4%	-8%	14µM*	4%	?	37%[59 µM]	Cc1cc(N/N=C/c2c(O)ccc3ccccc23)nc(-c2ccccc2O)n1
?	-12%	?	-4%	?	116%[59 µM]	Cc1cc(NCc2ccccc2)nc(-c2ccccc2O)n1
3%	-1%	-6%	1%	-8%	32µM*	Oc1ccc2ccccc2c1/C=N/n1cnnc1
-4%	-1%	-9%	-24%	-4%	?	Cc1nn(C)c(C)c1N=Cc1c(O)ccc2ccccc12
.	-6%	.	.	?	43%[59 µM]	CCOC(=O)c1ccc(CN(Cc2ccc(F)cc2)S(=O)(=O)c2ccc(F)cc2)cc1
-2%	.	?	21%	.	-15%[2.33 µM]	O=C(/C=C/c1ccccc1)OC1CC(O)C2(O)C=CO[C@@H](OC3OC(CO)C(O)C(O)C3O)C12 (stereo partly drawn)
.	13%	.	13%	.	56µM*	O=C(N/N=C/c1c(O)ccc2ccccc12)c1ccc(CO)nc1
-13%	-1%	-12%	-28%	?	1.1µM*	Cc1cc(C)n(/N=C\c2c(O)ccc3ccccc23)c(=O)c1C(N)=O
.	2%	.	15%	.	5%	CCOc1cc(/C=N/n2c(C)nc3ccccc3c2=O)ccc1O
.	10%	?	-24%	.	28µM*	Oc1ccc2ccccc2c1C=NCc1ccccc1
-7%	-3%	-9%	26%	-3%	4%[59 µM]	Oc1cccc(C=NCc2ccccc2)c1
18µM*	-28%	7.9µM*	-14%	4%	7.1µM*	Oc1ccc2ccccc2c1/C=N/Nc1ccccc1
-2%	-43%	-5%	-13%	9%[9.22 µM]	1%	Brc1cccc2sc(N3CCCC3)nc12
.	18%	.	.	-5%[46 µM]	?	CCOC(=O)c1c(C)[nH]c(C)c1S(=O)(=O)N1CCN(c2cccc(C(F)(F)F)c2)CC1
.	-13%	.	.	.	-34%[59 µM]	Cc1nn2c(-c3cccc(NC(=O)c4ccc(Cl)cc4)c3)nnc2c2ccccc12
.	.	.	.	.	-7%[12.7 µM]	CC(NC(=O)COC(=O)CNS(=O)(=O)/C=C/c1ccccc1)c1ccccc1 (stereo not drawn)
.	-2%	.	.	.	-16%[59 µM]	CC(C)CCNC(=O)C1CCN(S(=O)(=O)c2cccc3nsnc23)CC1
.	30%	11µM*	12%	.	19%[59 µM]	O=CN/N=C/c1c(O)ccc2ccccc12

(further entries)
ALDH1A1 inh	miR-21 FLuc	KDM4E inh	Sfp PPTase inh	LMNA splice mod	G9a inh	SMILES
.	28%	.	6%	.	-4%	O=C(CNc1ccc(F)cc1)N/N=C/c1c(O)ccc2ccccc12
2%	-8%	2%	12%	-1%	19%[59 µM]	O=c1c2ccccc2c(C=Nc2ccc(Cl)cn2)c(O)n1-c1cc(Cl)ccc1N1CCOCC1
?	6%	?	-12%	.	1.8µM*	Oc1ccc2ccccc2c1C=Nc1ccc(Cl)cn1
.	16%	7.1µM*	8%	.	.	NC(=S)N/N=C/c1c(O)ccc2ccccc12
.	-14%	.	?	.	.	O=C(c1cc2cc(F)ccc2[nH]1)N1CCN(C(=O)c2ccco2)CC1
7%	-6%	3%	-1%	?	56µM*	CCN1CCCC1CNCc1ccccc1OCc1ccc(F)cc1 (stereo not drawn)
2%	1%	2%	18%	27%[46 µM]	9%	COc1ccc(OCc2cc(-c3ccc(Cl)cc3)no2)cc1
22µM*	?	-1%	19%	.	9%	O=C(CCl)NCc1cc(-c2ccc(Cl)cc2)no1
11%	.	.	11%	-8%	5%[0.501 µM]	O=c1c(-c2ccc(F)c(F)c2)nc2cncnc2n1C1CC1
.	19%	5%	3.2µM*	.	13µM*	NC(=S)NNc1ccc(Cl)c(Cl)c1
.	15%	1%	13µM*	.	?	Cc1ccc(NNC(N)=S)cc1Cl
.	.	.	1%	.	.	Cc1ccccc1N1CCN(S(=O)(=O)CC23CCC(CC2NC(=O)C(N)CCS(C)(=O)=O)C3(C)C)CC1 (stereo not drawn)
?	3%	-13%	-5%	.	-28%	CN1CCN(C(=O)C23CC4CC(C2)CC(c2ccccc2)(C4)C3)CC1
.	.	.	.	.	20µM*	CC(=O)c1ccc(OCC(=O)Nc2cccc(S(=O)(=O)N3CCCC3)c2)cc1
.	.	.	.	.	10µM*	O=C(COC(=O)c1ccc(C(F)(F)F)cc1)Nc1cccc(S(=O)(=O)N2CCCCC2)c1
.	.	.	.	.	-2%[12.7 µM]	CC(=O)c1ccccc1OCC(=O)Nc1cccc(S(=O)(=O)N2CCCC2)c1
?	-12%	-30%	-2%	-18%[46 µM]	14µM*	COc1ccc(N(CCCN2C(=O)c3cccc4cccc(c34)C2=O)C(=O)c2cccnc2)cc1
.	-1%	.	.	1%[46 µM]	?	Cc1ccc(NC(=O)C(=O)NCC(c2cccnc2)N2CCN(Cc3ccccc3)CC2)cc1F (stereo not drawn)
.	4%	.	.	.	-21%[59 µM]	CCCCN(C)C(=O)c1ccc2c(=O)n3nc(Nc4cc(C)ccc4C)sc3nc2c1
8.9µM*	?	1%	3.5µM*	.	2.5µM*	COc1cc(N2C(=O)C=CC2=O)c(OC)cc1Cl

Later entries
ALDH1A1 inh	miR-21 FLuc	KDM4E inh	Sfp PPTase inh	LMNA splice mod	G9a inh	SMILES
-2%	4%	0%	0%	.	.	COc1cc(Cl)c(S(=O)(=O)N2CCCC2)cc1Cl
.	23%	.	.	-18%[46 µM]	14µM*	COc1ccc(N(C(=O)/C=C\C(=O)Nc2ccc(C)cc2)C(C(=O)NCc2ccco2)c2ccc(C)cc2)cc1 (stereo not drawn)
.	?	.	.	-17%[46 µM]	?	COc1ccc(NC(=O)/C=C\C(=O)N(c2ccc(C(C)C)cc2)C(C(=O)NCc2ccco2)c2ccc(C)cc2)cc1 (stereo not drawn)
7.9µM*	-44%	-4%	-10%	.	-49%	CC(=Nc1cc(C(=O)c2ccccc2)ccc1N)C1=C(O)CC(C)(C)CC1=O
4%	0%	-7%	2%	.	9%	C/C(=N/NC(=O)c1cccnc1)C1=C(O)CC(C)(C)CC1=O
-2%	.	9%	10%	.	.	COc1ccc2c(c1)O[C@@H](c1cccc(C(F)(F)F)c1)[C@H](OC(=O)NS(=O)(=O)c1ccc(F)cc1)C2=O
10µM*	-17%	?	?	11%	?	O=C(Cc1ccc(S(=O)(=O)N2CCCC2)s1)Nc1nc2c(s1)CCCC2
-3%	-35%	-5%	-6%	?	79µM*	COc1ccc(NC(=O)Nc2nc3c(s2)CCCC3)cc1
10%	18%	-3%	13%	?	4%	O=C(Cc1ccc(Cl)cc1)Nc1ccncc1
5%	18%	4%	5%	.	50µM*	Cc1ccc(CC(=O)Nc2ccncc2)cc1
.	25%	.	.	?	4%[59 µM]	Cc1ccc(C(C)C)c(OCC(=O)Nc2nc3c(s2)CCCC3)c1

Some of these compounds in order of SMILES length, rising.
ALDH1A1 inh	miR-21 FLuc	KDM4E inh	Sfp PPTase inh	LMNA splice mod	G9a inh	SMILES
.	15%	1%	13µM*	.	?	Cc1ccc(NNC(N)=S)cc1Cl
7.9µM*	-44%	-4%	-10%	.	-49%	CC(=Nc1cc(C(=O)c2ccccc2)ccc1N)C1=C(O)CC(C)(C)CC1=O
.	4%	.	.	.	-21%[59 µM]	CCCCN(C)C(=O)c1ccc2c(=O)n3nc(Nc4cc(C)ccc4C)sc3nc2c1
.	.	.	.	.	10µM*	O=C(COC(=O)c1ccc(C(F)(F)F)cc1)Nc1cccc(S(=O)(=O)N2CCCCC2)c1
.	18%	.	.	-5%[46 µM]	?	CCOC(=O)c1c(C)[nH]c(C)c1S(=O)(=O)N1CCN(c2cccc(C(F)(F)F)c2)CC1
.	23%	.	.	-18%[46 µM]	14µM*	COc1ccc(N(C(=O)/C=C\C(=O)Nc2ccc(C)cc2)C(C(=O)NCc2ccco2)c2ccc(C)cc2)cc1 (stereo not drawn)

Bioassay records: PubChem BioAssay, National Center for Advancing Translational Sciences (NCATS)
